Earlier results on one compound are cited in patent US20240108688A1, “Inhibitors of the tissue factor-protease activated receptor 2 (TF-PAR2) signaling pathway for use in the treatment or prevention of heart failure (HF) and associated or resulting diseases” (priority 2020, published 2024).

For this data set the following is noted: long-term high-dose regimens in cancer therapy; cited from earlier work.

As to `CC(=O)Nc1cccc(-n2c(=O)n(C3CC3)c(=O)c3c(Nc4ccc(I)cc4F)n(C)c(=O)c(C)c32)c1` [trametinib, reference compound], the cardiac side effects result was “cardiotoxic side effects”.
